Chains of the proteins cited; added tags and fusions are not shown. Residues count along the entry.
UniProt P14416, whole entry: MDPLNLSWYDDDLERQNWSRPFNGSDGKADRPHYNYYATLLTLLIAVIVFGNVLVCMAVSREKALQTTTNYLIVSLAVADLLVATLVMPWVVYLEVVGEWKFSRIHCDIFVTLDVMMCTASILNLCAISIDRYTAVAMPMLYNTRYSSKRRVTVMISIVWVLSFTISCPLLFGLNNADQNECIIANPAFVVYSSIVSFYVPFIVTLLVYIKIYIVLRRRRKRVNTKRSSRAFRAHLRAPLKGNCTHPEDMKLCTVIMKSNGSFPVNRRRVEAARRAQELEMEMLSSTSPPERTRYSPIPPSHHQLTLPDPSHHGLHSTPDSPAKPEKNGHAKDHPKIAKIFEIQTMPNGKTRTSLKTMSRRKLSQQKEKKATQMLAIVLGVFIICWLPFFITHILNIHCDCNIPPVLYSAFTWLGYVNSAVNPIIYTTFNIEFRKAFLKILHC
UniProt P61169, 1-415 isoform P61169-2: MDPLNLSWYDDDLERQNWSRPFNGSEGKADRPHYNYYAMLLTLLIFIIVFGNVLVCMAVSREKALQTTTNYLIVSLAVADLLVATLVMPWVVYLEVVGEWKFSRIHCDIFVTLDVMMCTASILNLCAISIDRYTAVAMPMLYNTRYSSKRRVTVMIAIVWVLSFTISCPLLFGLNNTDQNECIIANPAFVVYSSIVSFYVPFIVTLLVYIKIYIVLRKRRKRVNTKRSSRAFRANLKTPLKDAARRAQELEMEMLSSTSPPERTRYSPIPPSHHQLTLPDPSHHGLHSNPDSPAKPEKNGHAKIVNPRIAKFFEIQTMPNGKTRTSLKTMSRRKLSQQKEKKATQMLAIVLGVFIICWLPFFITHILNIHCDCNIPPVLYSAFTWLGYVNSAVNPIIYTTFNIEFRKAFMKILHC

According to patent US8063060B2, “R(−)-11-hydroxyaporphine derivatives and uses thereof” (The McLean Hospital Corporation, priority 2004, dated 2011):

Experiments:
human D2 receptor = target: T1, human D2 receptor (Homo sapiens, UniProt P14416); test: Affinity at human D2 receptor in transfected cell membranes, tritium-labeled nemonapride; type: binding
T1 construct: expressed in transfected cells

dopamine D2 receptor = dopamine D2 receptor (Rattus norvegicus, UniProt P61169); test: Radioligand competition assay, D2 receptor, rat corpus striatum membranes, [3H]nemonapride; type: binding

Compound | Ki (human D2 receptor) [µM] | Ki (dopamine D2 receptor) [µM]
CCCN1CCc2cccc3c2[C@H]1Cc1cccc(O)c1-3 [Compound 4, R(−)—N-propyl-11-hydroxynoraporphine] | 0.177 ± 0.017 | 
CN1CCc2cccc3c2[C@H]1Cc1ccc(O)c(O)c1-3 [Compound 1, R(−)-apomorphine] |  | 0.0132 ± 0.0021
